# Experimental data taken from ChEMBL document CHEMBL5053531, “Development of BromoTag: A "Bump-and-Hole"-PROTAC System to Induce Potent, Rapid, and Selective Degradation of Tagged Target Proteins” (J Med Chem, 2021).
# The chains behind the UniProt entries cited, without tags or fusion partners.
# UniProt P25440, whole entry, looked up: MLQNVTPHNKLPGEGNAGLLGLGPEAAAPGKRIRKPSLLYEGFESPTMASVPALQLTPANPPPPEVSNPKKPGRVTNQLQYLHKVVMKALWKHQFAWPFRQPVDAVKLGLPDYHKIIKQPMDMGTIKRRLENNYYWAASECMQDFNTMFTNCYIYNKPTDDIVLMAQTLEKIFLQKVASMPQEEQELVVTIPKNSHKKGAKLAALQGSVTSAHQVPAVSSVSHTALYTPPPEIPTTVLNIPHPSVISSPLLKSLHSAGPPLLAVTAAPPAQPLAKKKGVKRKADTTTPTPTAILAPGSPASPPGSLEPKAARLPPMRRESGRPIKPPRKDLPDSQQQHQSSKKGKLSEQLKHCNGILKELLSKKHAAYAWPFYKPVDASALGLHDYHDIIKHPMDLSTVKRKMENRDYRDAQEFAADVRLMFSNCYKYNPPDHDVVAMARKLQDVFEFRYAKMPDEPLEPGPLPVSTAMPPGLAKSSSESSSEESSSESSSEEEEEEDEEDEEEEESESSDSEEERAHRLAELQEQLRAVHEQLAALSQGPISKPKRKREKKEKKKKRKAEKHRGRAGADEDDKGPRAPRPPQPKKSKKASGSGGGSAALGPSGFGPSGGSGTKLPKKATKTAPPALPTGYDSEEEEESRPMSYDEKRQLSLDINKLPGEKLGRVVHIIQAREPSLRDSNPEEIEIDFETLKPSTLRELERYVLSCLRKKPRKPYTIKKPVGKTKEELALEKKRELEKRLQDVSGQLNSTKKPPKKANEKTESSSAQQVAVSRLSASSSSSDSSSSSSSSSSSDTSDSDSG
# UniProt P40337, whole entry, looked up: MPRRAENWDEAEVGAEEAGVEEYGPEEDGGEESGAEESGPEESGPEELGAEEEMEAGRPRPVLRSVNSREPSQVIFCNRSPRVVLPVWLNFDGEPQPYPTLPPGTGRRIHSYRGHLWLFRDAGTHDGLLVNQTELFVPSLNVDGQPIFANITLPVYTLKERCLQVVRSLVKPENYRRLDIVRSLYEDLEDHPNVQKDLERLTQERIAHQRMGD
# The source made the active and inactive calls. No cut-off for these calls is given here.
# Molecular target: von Hippel-Lindau disease tumor suppressor/Bromodomain-containing protein 2 (Homo sapiens, UniProt P25440+P40337)
# Assay: Bump and hole PROTAC activity at BromoTag-Brd2/VHL-bound E3 ligase in HEK293 cells assessed as Brd2 degradation at 0.001 to 10 uM measured after 6 hrs by Western blot analysis
# Type: cell-based
# Settings: dose 0.001-10 µM
row,SMILES,Brd2 degradation activity
1,CC[C@@H](C(=O)OCCOCCCOCC(=O)N[C@H](C(=O)N1C[C@H](O)C[C@H]1C(=O)N[C@@H](C)c1ccc(-c2scnc2C)cc1)C(C)(C)C)[C@@H]1N=C(c2ccc(Cl)cc2)c2c(sc(C)c2C)-n2c(C)nnc21,Active
2,CC[C@@H](C(=O)NCCOCCOCCOCC(=O)N[C@H](C(=O)N1C[C@H](O)C[C@H]1C(=O)NCc1ccc(-c2scnc2C)cc1)C(C)(C)C)[C@@H]1N=C(c2ccc(Cl)cc2)c2c(sc(C)c2C)-n2c(C)nnc21,Active
3,CCC(C(=O)OCCOCCCOCC(=O)N[C@H](C(=O)N1C[C@H](O)C[C@H]1C(=O)N[C@@H](C)c1ccc(-c2scnc2C)cc1)C(C)(C)C)C1N=C(c2ccc(Cl)cc2)c2c(sc(C)c2C)-n2c(C)nnc21 (mixture of isomers),Active
4,CCC(C(=O)NCCOCCOCCOCC(=O)N[C@H](C(=O)N1C[C@H](O)C[C@H]1C(=O)NCc1ccc(-c2scnc2C)cc1)C(C)(C)C)C1N=C(c2ccc(Cl)cc2)c2c(sc(C)c2C)-n2c(C)nnc21 (mixture of isomers),Active
5,CCC(C(=O)OCCOCCOCCOCC(=O)N[C@H](C(=O)N1C[C@H](O)C[C@H]1C(=O)NCc1ccc(-c2scnc2C)cc1)C(C)(C)C)C1N=C(c2ccc(Cl)cc2)c2c(sc(C)c2C)-n2c(C)nnc21 (mixture of isomers),Active
6,CC[C@@H](C(=O)OCCOCCOCCOCC(=O)N[C@H](C(=O)N1C[C@H](O)C[C@H]1C(=O)NCc1ccc(-c2scnc2C)cc1)C(C)(C)C)[C@@H]1N=C(c2ccc(Cl)cc2)c2c(sc(C)c2C)-n2c(C)nnc21,Active

# Tested on: von Hippel-Lindau disease tumor suppressor/Bromodomain-containing protein 4 (Homo sapiens), O60885+P40337 [L387A]
# Settings: HEK293, dose 200.0 nM, time 3.0 hrs
row,SMILES,inhibition
1,CC[C@@H](C(=O)OCCOCCOCCOCC(=O)N[C@H](C(=O)N1C[C@H](O)C[C@H]1C(=O)NCc1ccc(-c2scnc2C)cc1)C(C)(C)C)[C@@H]1N=C(c2ccc(Cl)cc2)c2c(sc(C)c2C)-n2c(C)nnc21,Active
